Tested on: N=C(N)NCCC[C@H](N)C(=O)O
Assay: purified protein, by the assay type
Settings: other: substrate Km used in the Ki equation; pH 7.4; 37.0 °C

## murine macrophage iNOS (Mus musculus)
  Km: 8.2 µM
